This is an account of results in publication PMC12527922, “Cocaine chemogenetics blunts drug-seeking by synthetic physiology” (Nature, 2025).

Sequences of proteins named here, by UniProt entry; tags and fusion partners are left off. Residues count along the entry.
UniProt P36544, 23-224 L141G/G175K/Y210F/Y217F: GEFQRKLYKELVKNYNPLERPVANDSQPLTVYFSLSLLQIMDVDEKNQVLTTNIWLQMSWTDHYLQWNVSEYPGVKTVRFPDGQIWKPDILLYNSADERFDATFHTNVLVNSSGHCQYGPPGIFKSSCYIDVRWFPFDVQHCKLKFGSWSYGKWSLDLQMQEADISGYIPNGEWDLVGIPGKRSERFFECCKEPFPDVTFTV

For assay [1], the target named is coca-5HT3 (Homo sapiens, UniProt P36544, G175K/L141G/Y210F/Y217F). Nature of the assay: [^3H]ASEM displacement, membranes of HEK293 cells expressing coca-5HT3. It is filed as binding, human α7 nAChR LBD, mouse 5HT3 IPD. Particulars: Two sites - Fit Ki. The protocol: Cells were suspended in Tris-HCl 50 mM pH 7.4 supplemented with protease inhibitor cocktail (1:100, Sigma-Aldrich). HEK293 cells were disrupted with a 6 Polytron homogenizer (Kinematica). Homogenates were centrifuged at 48,000g (50 min, 4 °C) and washed twice in the same conditions to isolate the membrane fraction. Protein was quantified using the bicinchoninic acid method (Pierce). Membrane suspensions (50 µg of protein per ml) were incubated in 50 mM Tris-HCl (pH 7.4) containing 8 mM CaCl2, 2 nM of [^3H]ASEM (26 Ci mmol^−1, Novandi Chemistry) and increasing concentrations of the tested compounds during 2 h at room temperature as previously described. Non-specific binding was determined in the presence of 100 µM of non-radiollabeled ASEM. Free and membrane-bound radioligands were separated by rapid filtration of 500 μl aliquots in a 96-well plate harvester (Brandel) and washed with 2 ml of ice-cold Tris-HCl buffer. Microscint-20 scintillation liquid (65 μl per well, PerkinElmer) was added to the filter plates, plates were incubated overnight at room temperature and radioactivity counts were determined in the MicroBeta2 plate counter (PerkinElmer) with an efficiency of 41%. Two-site competition curves were fitted using Prism 10 (GraphPad). Ki values were calculated using the Cheng–Prusoff equation.

Assay [2] deals with coca-5HT3 (α7(L141G,G175K,Y210F,Y217F)–5HT3) (Homo sapiens, UniProt P36544, G175K/L141G/Y210F/Y217F). Nature of the assay: Membrane potential assay, coca-5HT3 in HEK293. Particulars: conc 333.333 uM, ED Fig 3a.

Several values for one entry are separate records, joined by “and”; a condition that tells them apart may be missing. Identical values can stand only once. Like-named read-outs stand apart in the source and are kept apart here.

For the molecule `O=S1(=O)c2cc(N3CCN4CCC3CC4)ccc2-c2cccc(F)c21` [ASEM], the Ki in assay [1] (MEAN of 3 experiments, read-out: KiHi MEAN) was 1.5e-09 M; in assay [1] (MEAN of 3 experiments, read-out: KiLo MEAN), 1.17e-06 M; in assay [1] (best-fit value per replicate, high-affinity site, concentrations in log(M), read-out: KiHi), 4.65e-12 M and 5.23e-12 M and 3.39e-11 M; in assay [1] (best-fit value per replicate, low-affinity site, concentrations in log(M), read-out: KiLo), 1.9e-07 M and 3.25e-07 M and 1.28e-06 M; in assay [1] (MEAN of replicates, high-affinity site, concentrations in log(M), read-out: KiHi MEAN), 1.46e-11 M; in assay [1] (MEAN of replicates, low-affinity site, concentrations in log(M), read-out: KiLo MEAN), 6e-07 M. In addition, the logKiHi in assay [1] (best-fit value per replicate, high-affinity site, concentrations in log(M), HotNM 2.000, HotKdNM 0.1500) was -11.33 and -11.28 and -10.47. The logKiLo in assay [1] (best-fit value per replicate, low-affinity site, concentrations in log(M), HotNM 2.000, HotKdNM 0.1500) was -6.722 and -6.488 and -5.891.
In assay [2], `CNC[C@H](O)c1ccc(O)c(O)c1` [Epinephrine] yielded a Response of 0.325.
